Measurements published in patent publication US20050164945A1 (published 2005).

How the values were obtained:
[1] = target: T1, recombinant endotheliase 1 (human, UniProt Q9UL52 192-423, limits assumed); assay: inhibition of ET1 activity
T1 construct: also called ET1; rET1
T1 sequence: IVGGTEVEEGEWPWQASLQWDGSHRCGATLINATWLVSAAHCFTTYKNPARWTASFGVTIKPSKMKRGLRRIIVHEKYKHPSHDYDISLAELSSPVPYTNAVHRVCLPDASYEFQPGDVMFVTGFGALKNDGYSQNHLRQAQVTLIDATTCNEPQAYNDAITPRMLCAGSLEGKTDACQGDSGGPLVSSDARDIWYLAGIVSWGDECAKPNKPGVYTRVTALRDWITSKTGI

[2] = target: T1, recombinant endotheliase 1; assay: apparent Ki, inhibition of ET1, uncorrected for substrate
[3] = target: T1, recombinant endotheliase 1; assay: inhibition of ET1 activity; remark: listed apart in the source

## AGHWQCKGYAPDCEPWGT (synthetic peptide) [DX-1104]
[1]
  Ki: 126 nM

## AGSGRRFCISRDIPCVTHGT [DX-1630]
[2]
  Ki: 128 nM

## AGKMRCLSRDLPCVTHGTY (synthetic peptide) [DX-1106]
[3]
  Ki: 73.6 nM

## AGMARVKCISRDIPCVTHGTY [DX-1631]
[2]
  Ki: 13.1 nM

## AGKMRCISRDIPCTVKSGGTY [DX-1632]
[2]
  Ki: 15.8 nM

## AGKMRCLSRDIPCSIHQKGTY [DX-1633]
[2]
  Ki: 26.4 nM

## AGKMRCLSRDIPCVNFRLGT [DX-1634]
[2]
  Ki: 19.3 nM

## AGKMRCISRDIPCTVFQEGT [DX-1635]
[2]
  Ki: 8.5 nM

## AGKMRCISRDIPCTTRVAGTY [DX-1636]
[2]
  Ki: 11.3 nM

## AGGWRYPCKGFYPDCGYPGT [DX-1638]
[2]
  Ki: 126 nM

## AGRAGWRCKGYYPDCGYPGT [DX-1642]
[2]
  Ki: 11.6 nM

## AGNTGWRCKGYYPDCGYPGT [DX-1639]
[2]
  Ki: 28 nM

## AGRASWRCKGYYPDCGYPGT [DX-1640]
[2]
  Ki: 29 nM

## AGSSGWRCKGYYPDCGYPGT [DX-1644]
[2]
  Ki: 8.6 nM

## AGRETWVCKGYYPDCGYPGT [DX-1641]
[2]
  Ki: 34.6 nM

## AGQLGWKCKGYYPDCGYPGT [DX-1643]
[2]
  Ki: 25.6 nM

## AGKHICRGYYPDCVWQTFGT [DX-1647]
[2]
  Ki: 12.7 nM

## AGKHICRGFYPDCVWQTWGT [DX-1645]
[2]
  Ki: 15.6 nM

## AGKHICRGFYPDCVWQTFGT [DX-1649]
[2]
  Ki: 22.1 nM

## AGKHICRGYYPDCIWQFAGT [DX-1648]
[2]
  Ki: 19.8 nM
